This passage reports Efficacy and Activity results from ChEMBL document CHEMBL4433205, “Dual Pharmacophores Explored via Structure-Activity Relationship (SAR) Matrix: Insights into Potent, Bifunctional Opioid Ligand Design” (J Med Chem, 2019).

Chains of the proteins cited; added tags and fusions are not shown.
UniProt P33533, whole entry: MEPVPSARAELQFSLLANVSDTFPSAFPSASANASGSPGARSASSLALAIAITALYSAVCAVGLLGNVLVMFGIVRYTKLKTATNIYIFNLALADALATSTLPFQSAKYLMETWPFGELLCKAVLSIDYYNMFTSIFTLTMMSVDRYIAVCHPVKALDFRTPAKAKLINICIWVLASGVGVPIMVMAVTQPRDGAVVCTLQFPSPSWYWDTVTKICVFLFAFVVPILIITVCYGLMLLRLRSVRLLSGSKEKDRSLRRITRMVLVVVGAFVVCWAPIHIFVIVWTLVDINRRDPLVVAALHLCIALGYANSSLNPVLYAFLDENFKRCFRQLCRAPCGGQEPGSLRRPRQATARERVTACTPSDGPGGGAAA

The target of assay [1] is Delta-type opioid receptor (Rattus norvegicus) (UniProt P33533). The assay is described as follows: Agonist activity at rat delta opioid receptor expressed in rat C6 cell membranes assessed as stimulation of [35S]GTPgammaS binding incubated for 1 hr relative to DPDPE. The format is functional. (Binding of GTPγS marks nucleotide exchange on a G protein.)
For assay [2] the target is unchanged. Put plainly: Agonist activity at rat delta opioid receptor expressed in C6 cell membranes assessed as stimulation of [35S]GTPgammaS binding at 1 uM incubated for 1 hr relative to SNC80. The format is functional. An outline of the steps:
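Rat DOR in C6 glioma membranes, [35S]-GTPγS binding (0.1 nM, 30 μM GDP, 1 h, 25°C). SNC80 concentration–response run alone and with 1 μM test compound present; stimulation expressed relative to SNC80. Ke = compound concentration/(EC50 shift − 1). Mean of ≥3 assays in duplicate.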

The structures appear in SMILES notation. Calls of active or inactive are those of the source. The rule behind the calls is not given here.

On to `Cc1cc(O)cc(C)c1C[C@H](N)C(=O)N[C@@H]1CCN(C(=O)c2ccccc2)c2ccc(Cc3ccc4ccccc4c3)cc21.O=C(O)C(F)(F)F`, for which, in assay [1], the Efficacy entry is “inactive”. The Activity in assay [2] came to 100%.

As to `Cc1cc(O)cc(C)c1C[C@H](N)C(=O)N[C@@H]1CCN(C(=O)c2ccccc2)c2ccc(Cc3cnc4ccccc4c3)cc21.O=C(O)C(F)(F)F`, the Efficacy result in assay [1] is “inactive”. For the same compound, the Activity in assay [2] was found to be 100%.
